Measured values reported in paper PMC11062894, “Protein-based bandpass filters for controlling cellular signaling with chemical inputs” (Nature Chemical Biology, 2023).

Sequences of proteins named here, by UniProt entry; tags and fusion partners are left off.
UniProt P10415, whole entry: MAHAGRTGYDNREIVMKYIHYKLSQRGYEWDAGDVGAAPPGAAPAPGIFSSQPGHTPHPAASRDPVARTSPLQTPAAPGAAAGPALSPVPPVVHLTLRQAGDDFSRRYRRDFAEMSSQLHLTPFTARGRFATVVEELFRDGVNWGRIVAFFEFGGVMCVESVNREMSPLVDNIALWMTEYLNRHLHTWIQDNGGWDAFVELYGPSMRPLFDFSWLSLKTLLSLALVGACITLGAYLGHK

Target: GEMS receptors with Bcl2:LD3 in HEK293T cells (Homo sapiens, UniProt P10415)
Test: GEMS SEAP reporter assay, Bcl2:LD3 complex disruption
Type: cell-based
Method: HEK293T cells were seeded in a 96-well plate 24 h before transfection. The transfection mix in each well consisted of 3 ng of constitutive human CMV promoter driven mammalian STAT3 expression vector (PhCMV-STAT3-pA), 30 ng of STAT3-induced reporter expression (OStat3-PhCMVmin-SEAP-pA) and 50 ng of expression vectors for each GEMS receptor chain (PSV40-IgK-(drughigh receptor)-EpoRm-IL-6RBm-pA and PSV40-IgK-(druglow receptor-GGGGSX3-LD3)-EpoRm-IL-6RBm-pA). For the specific drughigh receptor and druglow receptor used in the different cellular assays, they are indicated as wild type or with mutations. Then, plasmid DNA was mixed with 50 μl opti-MEM (Thermo Fisher) and 600 ng of polyethyleneimine (Polysciences, catalog no. 24765-1). For drug treatment experiments, drugs were added 12 h post-transfection and incubated with cells for 24 h before the SEAP reporter detection assay.
SEAP activity (U l^−1) in cell culture supernatants was quantified by kinetic measurements at 405 nm (1 minute per measurement for 30 cycles) of absorbance increase due to phosphatase-mediated hydrolysis of para-nitrophenyl phosphate (pNPP). […]

Question: How did the IC50 turn out when CC1(C)CCC(c2ccc(Cl)cc2)=C(CN2CCN(c3ccc(C(=O)NS(=O)(=O)c4ccc(N[C@H](CCN5CCOCC5)CSc5ccccc5)c(S(=O)(=O)C(F)(F)F)c4)cc3)CC2)C1 [Navitoclax] was run?
Answer: 1770 nM
